Target: CECR2 bromodomain (CECR2-BRD), wild type, GST tag cleaved (human) (UniProt Q9BXF3)
Test: ITC; peptide ligand in the syringe (0.6-[…]), CECR2-BRD in the sample cell (0.05-0.10 mM); 5°C; 20 mM sodium phosphate pH 7.0, 150 mM NaCl, 1 mM TCEP; single set of binding sites model; binding runs in triplicate

The chains behind the UniProt entries cited, without tags or fusion partners. Residues count along the entry.
UniProt Q9BXF3, 424-538: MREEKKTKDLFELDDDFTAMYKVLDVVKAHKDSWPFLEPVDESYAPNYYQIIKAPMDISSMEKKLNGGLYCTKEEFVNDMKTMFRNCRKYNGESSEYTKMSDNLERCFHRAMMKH

Kd: 112 µM
stoichiometry N: 1
Substance: RelAK310ac (305–315) peptide

— publication doi:10.1101/2024.12.09.627393
